Assay results: publication PMC4562733 (International Journal of Nanomedicine, 2015)

Key:
A549 tumors = assay: In vivo antitumor activity; parameters: species or system nude mice; conditions: A549-bearing mice
Outline: (§1)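 Tumor cells implanted in the upper right axillary fossa of nude mice; treatment began when tumors reached 0.2–0.5 cm diameter. Mice were randomized to four groups (n=5): PBS pH 7.4 control, free paclitaxel, or test conjugates, each at 5 mg/kg in 0.2 mL. Dosing was by tail vein every 3 days, five injections over 15 days. Tumor volume and body weight were recorded daily; values are mean ± SD.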

normal (Kunming) mice = assay: Acute toxicity; conditions: 80 to 320 mg/kg, tail vein, n=10 per group
[1] = Release of free PTX in human plasma, HPLC; format: in vitro ADME; conditions: 37°C, 4 hours
Outline: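 Test conjugate was dissolved at 5 mg per 2.5 mL in PBS pH 7.4 or human plasma and held at 37°C for up to 12 hours. Aliquots were drawn at set times and free PTX was extracted into ethyl acetate. Free PTX was quantified by reverse-phase C18 HPLC at 1 mL per minute and 30°C, with UV detection at 227 nm.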

MCF-7 tumors = assay: In vivo antitumor activity; parameters: species or system nude mice; conditions: MCF-7-bearing mice
Outline: as §1

folic acid-fluorescein-5(6)-isothiocyanate-arginine-paclitaxel [FA-FITC-Arg-PTX]
decrease of body weight, of original weight (A549 tumors): about 2%
survival rate (normal (Kunming) mice): maintained their original survival rates
free PTX released [1]: 56.72%
body weight change during treatment (MCF-7 tumors): gradual increase
